The source of these data is BindingDB's records for PubMed 6310078 (Pfizer, 1983).

Protein sequences, listed by entry. Tags and fused reporters are not part of them.
UniProt P31652, whole entry: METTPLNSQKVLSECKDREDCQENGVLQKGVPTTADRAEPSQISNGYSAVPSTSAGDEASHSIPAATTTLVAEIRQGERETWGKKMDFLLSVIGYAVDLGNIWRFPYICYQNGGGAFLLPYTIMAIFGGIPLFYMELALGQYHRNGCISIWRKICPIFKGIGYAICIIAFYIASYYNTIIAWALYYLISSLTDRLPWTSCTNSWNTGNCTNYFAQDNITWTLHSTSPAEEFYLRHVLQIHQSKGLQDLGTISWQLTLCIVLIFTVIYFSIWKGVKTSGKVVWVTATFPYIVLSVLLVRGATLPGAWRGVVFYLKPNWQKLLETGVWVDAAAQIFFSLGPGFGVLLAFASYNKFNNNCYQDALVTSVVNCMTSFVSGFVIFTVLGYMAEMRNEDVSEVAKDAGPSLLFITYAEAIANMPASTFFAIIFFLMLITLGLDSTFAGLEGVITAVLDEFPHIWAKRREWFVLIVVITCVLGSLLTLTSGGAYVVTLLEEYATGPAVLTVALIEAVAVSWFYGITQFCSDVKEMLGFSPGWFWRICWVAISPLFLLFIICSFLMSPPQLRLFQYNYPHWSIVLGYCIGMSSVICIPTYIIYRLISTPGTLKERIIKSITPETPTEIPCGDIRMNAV
UniProt P23977, whole entry: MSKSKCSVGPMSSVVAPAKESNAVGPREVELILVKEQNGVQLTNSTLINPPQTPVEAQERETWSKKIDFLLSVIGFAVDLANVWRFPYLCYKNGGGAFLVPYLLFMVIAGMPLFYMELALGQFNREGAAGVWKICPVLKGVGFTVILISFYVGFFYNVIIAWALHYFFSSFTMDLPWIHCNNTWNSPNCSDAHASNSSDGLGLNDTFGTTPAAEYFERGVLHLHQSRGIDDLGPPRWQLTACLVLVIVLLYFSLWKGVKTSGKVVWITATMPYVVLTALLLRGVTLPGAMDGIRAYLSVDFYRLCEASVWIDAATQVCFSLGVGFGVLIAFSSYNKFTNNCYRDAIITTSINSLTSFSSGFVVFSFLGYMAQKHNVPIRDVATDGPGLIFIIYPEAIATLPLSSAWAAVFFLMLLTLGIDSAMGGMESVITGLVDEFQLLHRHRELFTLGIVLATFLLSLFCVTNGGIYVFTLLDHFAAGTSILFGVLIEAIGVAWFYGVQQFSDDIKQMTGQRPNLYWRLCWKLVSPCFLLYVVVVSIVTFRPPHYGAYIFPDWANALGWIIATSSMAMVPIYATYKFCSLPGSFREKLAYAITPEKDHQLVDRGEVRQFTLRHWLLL

Experiment [1] addresses Sodium-dependent serotonin transporter (Rattus norvegicus, UniProt P31652).
Experiment [2] has as its target Sodium-dependent dopamine transporter (Rattus norvegicus, UniProt P23977).

As to `CNCCC=C1c2ccccc2CCc2ccccc21` [NORTRIPTYLINE], in experiment [1], the Ki is 1.7 µM.

Take `CN(C)CCCN1c2ccccc2CCc2ccccc21`: in experiment [2], the Ki is above 10 µM.

As a reminder, the Ki is a dissociation constant, usually derived from enzyme kinetics or from competition with a known ligand. Read a low Ki as tighter binding.
